Target: SARS-CoV-2 RdRp (Severe acute respiratory syndrome coronavirus 2, UniProt P0DTD1)
Experiment: cell-based
Settings: HEK-293T, read-out: Inhibition % of RdRp Activity at Max. Dose

CO[C@H]1/C=C/O[C@@]2(C)Oc3c(C)c(O)c4c(O)c(c(/C=N/N5CCN(C)CC5)c(O)c4c3C2=O)NC(=O)/C(C)=C\C=C\[C@H](C)[C@H](O)[C@@H](C)[C@@H](O)[C@@H](C)[C@H](OC(C)=O)[C@@H]1C [Rifampin, rifampin]
inhibition at 100 µM: 96.7%

From article PMC8392292 (Biomedicines, 2021)
